The values that follow come from patent US7122651B1, “Nucleic acid molecules encoding opioid growth factor receptors” (priority 1998, dated 2006).

For the test, the target named is T1, nuclear homogenates of human pancreatic tumor cells (PANC-1) (Homo sapiens, UniProt Q9NZT2).
T1 construct: host or cells: PANC-1; nuclear (P1) homogenates, and P2, P3 and S3 fractions in the fractionation study
T1 sequence (Q9NZT2 1-677): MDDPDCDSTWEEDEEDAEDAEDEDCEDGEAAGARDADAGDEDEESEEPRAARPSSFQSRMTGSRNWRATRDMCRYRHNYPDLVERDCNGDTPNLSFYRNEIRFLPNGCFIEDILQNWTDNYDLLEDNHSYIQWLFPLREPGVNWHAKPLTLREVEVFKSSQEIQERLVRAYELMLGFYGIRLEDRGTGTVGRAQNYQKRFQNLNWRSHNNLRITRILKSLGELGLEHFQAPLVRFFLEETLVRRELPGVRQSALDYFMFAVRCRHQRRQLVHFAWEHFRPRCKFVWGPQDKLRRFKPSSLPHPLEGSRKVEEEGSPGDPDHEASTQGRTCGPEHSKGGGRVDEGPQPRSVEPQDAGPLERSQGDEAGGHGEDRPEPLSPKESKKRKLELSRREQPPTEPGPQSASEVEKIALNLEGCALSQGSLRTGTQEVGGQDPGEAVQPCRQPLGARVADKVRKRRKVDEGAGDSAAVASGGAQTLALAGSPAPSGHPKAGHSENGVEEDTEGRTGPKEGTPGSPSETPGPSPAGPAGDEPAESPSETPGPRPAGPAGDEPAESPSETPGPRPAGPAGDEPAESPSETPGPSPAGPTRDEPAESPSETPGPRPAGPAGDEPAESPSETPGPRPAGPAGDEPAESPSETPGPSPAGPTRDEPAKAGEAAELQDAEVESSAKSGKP
Kind of test: Competition for binding of [^3H]-[Met^5]-enkephalin in PANC-1 nuclear homogenates.

As to Leucine enkephalin, for the setting “1 or 2 nM radioligand”, the “competition for [^3H][Met^5]-enkephalin binding” value is “little or no competition”. For the same substance, for the setting “competition with [^3H]-[Met^5]-enkephalin, at least 2 independent assays”, the IC50/Kd is on record as >10^−4.
